Measurements published in US20140349924A1 (Novo Nordisk A/S, priority 2007, published 2014).

Experiments:
[1] = tested on: freshly excised rat gut sacs (proximal jejunum); conditions: presence vs absence of 10% PG; 1 mM; 2 h; culture medium pH 7.4, 37° C.
Experimental: (§1) Freshly excised rat small intestine was rinsed in ice cold saline. Then gut sacs of 4 cm each in length were prepared. […] Thereafter the filled gut sacs were incubated for 2 h in 0.5 ml culture medium pH 7.4 at 37° C.

[2] = tested on: freshly excised rat gut sacs (proximal jejunum); assay: Rat gut sac model, MALDI-MS analysis of degradation products; conditions: with propylene glycol vs buffer control, 2 h
Experimental: as §1
MALDI-MS (Matrix-assisted laser desorption/ionization-mass spectrometry) was used analyze degradation products. Aliquots (1 μl) of acidified sample solutions and reference samples were deposited on a PAC384 MALDI plate, blotted with filter paper after 30 s and washed twice with 5 μl of 15 mM ammonium phosphate in 0.1% TFA. The samples were analyzed using Autoflex TofTof (Bruker Daltonics, USA).

[3] = absorbed into portal circulation; cited from earlier work

insulin
Permeated insulin across intestinal mucosa (HPLC) [1]: permeates to a higher content
Degradation of insulin (MALDI-MS) [2]: reduces the degradation
Insulin retained and metabolized in first passage through the liver [3]: roughly 60%
